Our source for the Ratio IC50 values is ChEMBL document CHEMBL4325885, “Design, synthesis, and biological evaluation of novel phenol ether derivatives as non-covalent proteasome inhibitors” (Eur J Med Chem, 2019).

By UniProt entry, the sequences of proteins in these tests, tags left out. Where a name states a change or a piece, a line headed by the entry shows the natural chain unless it says otherwise.
UniProt P28074: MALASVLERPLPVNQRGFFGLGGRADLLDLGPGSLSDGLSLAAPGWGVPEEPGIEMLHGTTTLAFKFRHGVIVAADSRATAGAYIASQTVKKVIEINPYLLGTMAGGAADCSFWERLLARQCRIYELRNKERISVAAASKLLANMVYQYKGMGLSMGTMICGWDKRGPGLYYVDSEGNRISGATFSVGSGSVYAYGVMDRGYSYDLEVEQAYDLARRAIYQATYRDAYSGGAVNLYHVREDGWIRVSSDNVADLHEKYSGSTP

Structures are written as SMILES.

The test has as its target Proteasome Macropain subunit MB1 (Homo sapiens, UniProt P28074). Nature of the test: Potency index, ratio of PI-1840 IC50 to test compound IC50 for human chymotrypsin-like activity of 20S constitutive proteasome.

Take `CCCCc1ccc(OCC(=O)N(CC(=O)Nc2ccnnc2)C(C)C)cc1`: the Ratio IC50 stood at 2.
